From US8389538B2, “Rexinoid compound having alkoxy group” (National University Corporation Okayama University, priority 2007, dated 2013) come the findings set out here.

This assay relates to Human leukemia cell strain HL-60. Description: HL-60 differentiation induction (NBT reduction method). Format: cell-based.

Where two headings read alike, the source gives them in different places. Where only a bound is given, the exact number is not on record here.

As to `CCN(c1ccc(C(C)C)c(OCC(C)C)c1)c1ccc(C(=O)O)cn1`, the “Retinoid synergistic activity BA(%)” value (Am80 present at 3.3×10^−10 M, maximum differentiation inducing rate relative to total cell number) is 81%. Besides, the EC50 is above 10000 nM (read-out: Retinoid activity EC50, test compound alone, concentration giving half of maximum differentiation inducing rate, four days culture) and 22 nM (read-out: Retinoid synergistic activity SEC50, Am80 present at 3.3×10^−10 M, half of maximum differentiation inducing rate).
